The numbers were not newly measured in patent publication US20070122482A1, “Method for preparing modified release pharmaceutical compositions” (priority 2003, published 2007), which cites them from elsewhere.

The conditions of the data set: Table 1, Poorly-Soluble Drug Candidates.

SMILES strings stand for the structures. This is a selection: effects in other tests are not listed, and their absence says nothing.

Consider `CCC(=O)N(c1ccccc1)C1CCN(CCc2ccccc2)CC1`, for which the Solubility in water entry is “Sparingly”.
